In PubChem BioAssay AID1259312 (Keith Lab, Institute of Cancer Science, University of …, 2017) one finds fold change data, which are given here for 6 compounds.

The structures appear in SMILES notation. This is a selection; strong and weak results do not stand in their true shares. Activity calls are given as the source filed them.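 Rule for the calls: active = cell survival measured by absorbance rises more than 2.5-fold over infected cells without compound; inactive = the rest.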

The nature of the assay: survival after telomere uncapping, modulators, primary screen, cell-based (AID 1259312).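 Note: virus expresses mutant telomerase RNA that uncaps telomeres and kills cells; compound added 2 days after infection so exposure lasts 3 days.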 The note with it: HCT116 + Ad-hTR-mut, MTT, 5 d, at 10 µM, stronger effect = higher value.
`Nc1nc(N)c([N+](=O)[O-])cc1[N+](=O)[O-]`: the fold change is inactive: 1.23.
In the case of `Cc1c(Cl)c([N+](=O)[O-])nn1[N+](=O)[O-]`, the fold change was inactive: -1.53.
With `O=C1c2c([N+](=O)[O-])cc([N+](=O)[O-])c(O)c2C(=O)c2c(O)c([N+](=O)[O-])cc([N+](=O)[O-])c21` the figure was inactive: 2.09; with `Cc1nn([N+](=O)[O-])cc1[N+](=O)[O-]`, inactive: -1.31.
In the case of `C=CC[C@H]1CC(C(O)(CC=C)CC=C)=C[C@@H](CC=C)N1.O=[N+]([O-])c1cc([N+](=O)[O-])c(O)c([N+](=O)[O-])c1`, the fold change was inactive: -1.15.
In the case of `O=C(O)C1(O)c2ccccc2-c2ccccc21` it was inactive: -1.65.
